Among the data in ChEMBL document CHEMBL4270649, “Development of novel amide-derivatized 2,4-bispyridyl thiophenes as highly potent and selective Dyrk1A inhibitors. Part II: Identification of the cyclopropylamide moiety as a key modification” (Eur J Med Chem, 2018) are Ratio IC50 values, retold here.

For the experiment, the species on record is Homo sapiens. Put plainly: Selectivity ratio of IC50 for full length recombinant human GST-tagged DYRK1B expressed in baculovirus expression system to IC50 for recombinant human N-terminal His6-tagged DYRK1A expressed in Escherichia coli BL21(DE3).

Structures are written as SMILES.

Take `O=C(Cc1ccc(F)cc1)Nc1cncc(-c2cc(-c3cccnc3)cs2)c1`: the Ratio IC50 stood at 27. To `O=C(Nc1cncc(-c2cc(-c3cccnc3)cs2)c1)C1CC1` belongs 24.
